Measured affinities in a library of Ab-14 heavy chain variants

Source: Li et al. 2023 (doi:10.1038/s41467-023-39022-2), MIT Lincoln Laboratory and A-Alpha Bio; data file from the FLAb repository.

All variants were tested on one target, the spike HR2 peptide PDVDLGDISGINAS (SARS-CoV-2).

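The starting antibody came from a phage panning campaign against this peptide. These sequences belong to a second round, designed from the earlier measurements on random variants of the parent. Group labels follow the data file (Rand: our label for a block that the file lists under HC and that is probably the random mutants of the ten best first-round binders; En: ensemble of fine-tuned language models; HC: hill climbing; Gen: genetic algorithm; Gibbs: Gibbs sampling; a sequence that several methods proposed may carry one label only). The scFvs were displayed on barcoded MATa yeast, the peptide on MATalpha yeast. Binding brings cells together so that they mate, and sequencing counts the barcode pairs among the diploids. The ratio of observed to expected reads was calibrated, replicate by replicate, on BCL2-family standards whose Kd was known from biolayer interferometry. Mating was done six times.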

Each scFv is VH, a (GGGGS)3 linker, VL, as in the parent Ab-14, and differs from it in the CDRs of the heavy chain only.
VH: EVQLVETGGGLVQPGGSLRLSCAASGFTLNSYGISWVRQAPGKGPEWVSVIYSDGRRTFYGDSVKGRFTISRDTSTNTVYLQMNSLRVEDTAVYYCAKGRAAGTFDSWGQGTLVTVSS
VL: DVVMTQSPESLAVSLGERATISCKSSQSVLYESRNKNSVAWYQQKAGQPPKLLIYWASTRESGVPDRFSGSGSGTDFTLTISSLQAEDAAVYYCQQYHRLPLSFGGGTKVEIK

Variants are written as CDR1, CDR2 and CDR3 of the heavy chain (limits as in the source). Parent: GFTLNSYGIS, VIYSDGRRTFYGDSVK, GRAAGTFDS. This list holds designs with more than six substitutions. Each Kd is an estimate from the mating assay, the geometric mean of the replicates in which the pair was seen; lower is stronger. "not detected" marks a missing value. The strain was present, yet no cells mated with the target were sequenced in any replicate, which points to weak or no binding. The range of this assay differs from that of the first round, and the authors advise against merging the two. The authors averaged sequences with at least three values out of six and counted those with two or fewer as poor binders. The parent sequence was in this pool as ten entries: three were never detected, three once, and four in most replicates, with averages from 2.2 nM to 240 nM. Three control strains display no target. For all heavy chain designs, 1% of the pairings with them gave a signal, with a median of 120 nM and one signal in twenty below 7.0 nM, so weak values seen in few replicates may be background.

CDR-H1	CDR-H2	CDR-H3	group	Kd (apparent)	detected
GFDLNEYGIS	VIYADGVRTAYADDVK	GQNAGTFDV	En_Gen	250 pM	6/6
GFDLNEYGIS	VIYADGRRTFYADSVK	GQGAGTFDL	En_HC	560 pM	6/6
GFDLNEYGIS	VIYADGMRTAYADKVK	GSNAGTFDV	En_Gen	180 pM	6/6
GDVLKEYGIS	VIYADGMRTSYVQDVK	GQKGGSYSV	En_Gibbs	130 nM	1/6
GIDMQEYGIS	VIYADGLRAAYSDNFK	GGLGGTFDM	En_Gibbs	1.1 nM	4/6
GFDLDEYGIS	VIYADGRRTAYADSVK	GQNAGTFDL	En_Gen	630 pM	6/6
GFDLDEYGIS	VIYADGVRTAYVDSVK	GQNAGTFDV	En_Gen	640 pM	6/6
GFDLNEYGIS	VIYADGMRTAYADSVK	GENGGTFDV	En_Gen	36 nM	2/6
GFKLDEYGIS	VIYADGHRVAVSDKVK	GDNVGAFFV	En_Gibbs	not detected	0/6
GFDLNEYGIS	VIYADGRRTAYIDSVK	GEIAGTFDN	En_HC	360 pM	6/6
GFDIQDYGIS	VIYADGSRTAYTNSVK	GVTGAFYGL	En_Gibbs	not detected	0/6
GFDINEYGIS	VIYADGRRVYYADDVK	GKNLELFSF	En_Gibbs	not detected	0/6
GFDLEDYGIS	VIYADGRRTAYIDSVK	GEIAGTFDV	En_HC	180 pM	6/6
GFNLNEYGIS	VIYADGKRTFYADSVK	GGNAGTFDV	En_HC	300 pM	6/6
GFDINEYGVS	VIYADGMRAFYTDSVK	GKGAGIALV	En_Gibbs	1.9 nM	6/6
GFQINEYGIS	VIYADGLRAAYSQDVK	GMDTGDFMD	En_Gibbs	not detected	0/6
GFDLNEYGIS	VIYADGRRTFYADSVK	GQAAGTFTL	En_HC	4.9 nM	6/6
GFDLDEYGIS	VIYADGQRTFYADSVK	GENAGTFDL	En_Gen	550 pM	6/6
GFDLDEYGIS	VIYADGLRTAYADSVK	GEVAGTFDV	En_Gen	380 pM	6/6
GESLDSYGIS	VIYADGMRTSYDNSVK	GVWAGTFDM	En_Gibbs	50 nM	1/6
GFDLNEYGIS	VIYADGMRTAYSDSVK	GEQAGTFDV	En_Gen	360 pM	6/6
GFDLNEYGIS	VIYADGMRTFYTDSVK	GEFAGTFDI	En_HC	830 pM	6/6
GFDIDEYGIS	VIYADGMRSALINAVK	GTLSGTFIA	En_Gibbs	not detected	0/6
GFDLNEYGIS	VIYADGRRTFYADDVK	GNVAGTFDV	En_Gen	330 pM	6/6
GFDLDQYGIS	VIYADGIRSYYADAVK	GHEGGILYV	En_Gibbs	not detected	0/6
GFDLNEYGIS	VIYADGRRTAYTDSVK	GGAAGTFDL	En_HC	440 pM	6/6
GFELSEYGIS	VIYADGVRSFVTQDVK	GQKGGVFNV	En_Gibbs	not detected	0/6
GFDLNEYGIS	VIYADGMRTAYTDSVK	GNEAGTFDK	En_HC	330 pM	3/6
GFDLDEYGIS	VIYADGMRTAYADDVK	GENAGTFDL	En_Gen	not detected	0/6
GFDLDEYGIS	VIYADGMRTFYADSVK	GNIAGTFDF	En_HC	290 pM	6/6
GFDLNEYGIS	VIYADGVRTFYVDSVK	GETAGTFDS	En_HC	490 pM	6/6
GFDLDEYGIS	VIYADGMRTAYADSVK	GNVAGTFDQ	En_Gen	380 pM	6/6
GFDLNEYGIS	VIYADGLRTFYTDSVK	GEFAGTFDI	En_HC	25 nM	3/6
GFDLDEYGIS	VIYADGQRTAYSDSVK	GNQAGTFDI	En_Gen	440 pM	6/6
GFKLDEYGIS	VIYADGQRKSYADSVK	GQINVYVTA	En_Gibbs	not detected	0/6
GFDLNEYGIS	VIYADGRRTFYADSVK	GNNAGTFFS	En_HC	36 nM	5/6
GFDLNEYGIS	VIYADGRRTFYADSVK	GQLAGTFDN	En_HC	520 pM	6/6
GFDLDEYGIS	VIYADGMRTVYADSVK	GNTAGTFDV	En_Gen	6.1 nM	6/6
GFDLNEYGIS	VIYADGVRTAYADSVK	GNVGGTFDV	En_Gen	170 pM	6/6
GFDLNEYGIS	VIYADGMRTYYADSVK	GNQAGTFDM	En_Gen	260 pM	6/6
GFELDEYGIS	VIYADGRRTFYADSVK	GENAGTFDM	En_HC	15 nM	6/6
GQQLDEYGIS	VIYADGVRKSYVDSFK	GEITGTFSQ	En_Gibbs	not detected	0/6
GENLEEYGIS	VIYADGFRTHYAEKVK	GQQAGFFIK	En_Gibbs	not detected	0/6
GFDLNEYGIS	VIYADGMRSYYADSVK	GNVAGTFDM	En_Gen	not detected	0/6
GFDLNEYGIS	VIYADGKRTAYADDVK	GENAGTFDM	En_Gen	330 pM	6/6
GFDLNEYGIS	VIYADGRRTAYADNVK	GETAGTFDI	En_Gen	80 pM	6/6
GFDLNEYGVS	VIYADGSRSAYTSSVK	GVHNGDIMI	En_Gibbs	not detected	0/6
GFDLNEYGIS	VIYADGSRTAYADNVK	GEVAGTFDT	En_Gen	650 pM	6/6
GFQLDEYGIS	VIYADGLRQYYAQNVK	GYNSFDIND	En_Gibbs	not detected	0/6
GFNLEDYGIS	VIYADGHRASMVESVK	GHLAGTFFE	En_Gibbs	not detected	0/6
GFDLDEYGIS	VIYADGRRTAYADSVK	GENAGTFDA	En_HC	420 pM	6/6
GYDIEQYGIS	VIYADGIRTVYDDSVK	GHNGDTFYV	En_Gibbs	not detected	0/6
GFDLNEYGIS	VIYADGRRTFYADSVK	GQNAGTFSV	En_HC	1.0 nM	6/6
GFNLDEYGIS	VIYADGMRTAYADSVK	GNQAGTFDI	En_Gen	620 pM	6/6
GFGLDEFGIS	VIYADGQRTAYLDSFK	GENSNAVDT	En_Gibbs	not detected	0/6
GFSLEEYGIS	VIYADGMRTFYTDKVK	GGLDDQEGY	En_Gibbs	6.3 µM	1/6
GFDLNEYGIS	VIYADGKRTFYADSVK	GNNAGTFDV	En_Gen	250 pM	6/6
GKNLDEYGIS	VIYADGKRTAYADSVK	NSVMSGRVT	En_Gibbs	52 nM	1/6
GFDLQEYGIS	VIYADGVREAYTNSFK	GQIAGTIDL	En_Gibbs	not detected	0/6
GFDLNEYGIS	VIYADGRRTFYADSVK	GEAAGTFNT	En_HC	7.6 nM	6/6
GFDLNEYGIS	VIYADGKRTFYADSVK	GQAAGTFDT	En_HC	360 pM	6/6
GFDLDEYGIS	VIYADGMRTFYADSVK	GEAAGTFDI	En_HC	380 pM	6/6
GFDLAEYGVS	VIYADGKRTAYADHVK	GENGGFFDL	En_Gibbs	not detected	0/6
GFDLNEYGIS	VIYADGRRTFYIDSVK	GENAGTFIM	En_HC	not detected	0/6
GFDLNEYGIS	VIYADGVRTAYADSVK	GNEAGTFDT	En_Gen	270 pM	6/6
GFDLNEYGIS	VIYADGRRTFYADSVK	GNEAGTFDM	En_HC	430 pM	6/6
GFTLNQYGIS	VIYSHGRRTRYSGSVK	SRAAGFFDS	Rand	not detected	0/6
GFDLNEYGIS	VIYADGRRTAYADSVK	GSNAGTFDM	En_Gen	730 pM	6/6
GFDLDEYGIS	VIYADGMRTAYADNVK	GQVAGTFDL	En_Gen	260 pM	6/6
GFQLDEYGIS	VIYADGKRTAYSKNVK	GYIDFKLIG	En_Gibbs	1.0 µM	1/6
GFQLDEVGIS	VIYADGIRRAYASKVK	GGDGGSFDL	En_Gibbs	not detected	0/6
GFDLNEYGIS	VIYADGRRTAYSDSVK	GEAGGTFDT	En_HC	890 pM	6/6
GFDLNEYGIS	VIYADGKRTFYADSVK	GKNAGTFLV	En_HC	580 pM	6/6
GFEIDEYGIS	VIYADGLRYHYANSVK	GEMAGTFME	En_Gibbs	not detected	0/6
GFDLDEYGIS	VIYADGSRTAYSDSVK	GETAGTFDV	En_Gen	720 pM	6/6
GFDLNEYGIS	VIYADGMRTQYADDVK	GNNAGTFDV	En_Gen	7.3 nM	5/6
GFDLNEYGIS	VIYADGRRTAYVDSVK	GQNAGTFDV	En_Gen	290 pM	6/6
GFDLNEYGIS	VIYADGRRTAYADNVK	GEVAGTFDV	En_Gen	250 pM	6/6
GKLLDEYGIS	VIYADGKRMVYAPSVK	GNLTDTLLV	En_Gibbs	not detected	0/6
GFDLNEYGIS	VIYADGMRTHYTDSVK	GNEAGTFDA	En_HC	1.3 nM	6/6

Excerpt, the first 5 entries:

{"CDR-H1": "GFDLNEYGIS", "CDR-H2": "VIYADGVRTAYADDVK", "CDR-H3": "GQNAGTFDV", "group": "En_Gen", "Kd (apparent)": "250 pM", "detected": "6/6"}
{"CDR-H1": "GFDLNEYGIS", "CDR-H2": "VIYADGRRTFYADSVK", "CDR-H3": "GQGAGTFDL", "group": "En_HC", "Kd (apparent)": "560 pM", "detected": "6/6"}
{"CDR-H1": "GFDLNEYGIS", "CDR-H2": "VIYADGMRTAYADKVK", "CDR-H3": "GSNAGTFDV", "group": "En_Gen", "Kd (apparent)": "180 pM", "detected": "6/6"}
{"CDR-H1": "GDVLKEYGIS", "CDR-H2": "VIYADGMRTSYVQDVK", "CDR-H3": "GQKGGSYSV", "group": "En_Gibbs", "Kd (apparent)": "130 nM", "detected": "1/6"}
{"CDR-H1": "GIDMQEYGIS", "CDR-H2": "VIYADGLRAAYSDNFK", "CDR-H3": "GGLGGTFDM", "group": "En_Gibbs", "Kd (apparent)": "1.1 nM", "detected": "4/6"}